Results from PMC6792352, “Limited Chemical Structural Diversity Found to Modulate Thyroid Hormone Receptor in the Tox21 Chemical Library” (Environmental Health Perspectives, 2019).

By UniProt entry, the sequences of proteins in these tests, tags left out. Residues count along the entry.
UniProt P10827, 163-410 isoform P10827-2 limits assumed: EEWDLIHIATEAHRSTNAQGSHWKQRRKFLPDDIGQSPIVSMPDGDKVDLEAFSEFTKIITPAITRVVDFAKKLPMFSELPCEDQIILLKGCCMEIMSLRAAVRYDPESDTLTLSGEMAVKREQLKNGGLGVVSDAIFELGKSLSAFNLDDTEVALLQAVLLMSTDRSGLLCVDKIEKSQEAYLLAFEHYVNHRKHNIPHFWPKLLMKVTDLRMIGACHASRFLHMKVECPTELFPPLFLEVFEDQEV

Legend:
[1] = target: T1, TRα ligand-binding domain (Homo sapiens, UniProt P10827); assay: TRa-coa LanthaScreen TR-FRET coactivator (SRC-2 peptide) recruitment, agonist (TOX21_TRA_COA_Agonist_Followup_ratio, aeid 2230); type: biochemical; conditions: cell-free coactivator recruitment; read-out: TRa-coa-Ag AC50
T1 construct: the receptor LBDs expressed as glutathione S-transferase (GST) fusion proteins; purchased

[2] = target: T2, human TRβ ligand-binding domain (Homo sapiens, UniProt P10828); assay: TRb-coa LanthaScreen TR-FRET coactivator (SRC-2 peptide) recruitment, agonist (TOX21_TRB_COA_Agonist_Followup_ratio, aeid 2244); type: biochemical; parameters: host or cells: GeneBLAzer UAS-bla HEK 293T; conditions: cell-free coactivator recruitment; read-out: TRb-coa-Ag AC50
T2 sequence (P10828 217-461 limits assumed): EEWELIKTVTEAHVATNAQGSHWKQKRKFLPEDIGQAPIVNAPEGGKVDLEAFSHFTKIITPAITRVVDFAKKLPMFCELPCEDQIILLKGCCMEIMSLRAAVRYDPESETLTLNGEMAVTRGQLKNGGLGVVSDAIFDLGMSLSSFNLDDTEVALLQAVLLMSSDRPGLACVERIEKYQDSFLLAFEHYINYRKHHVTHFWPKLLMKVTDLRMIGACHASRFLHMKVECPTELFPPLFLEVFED

[3] = target: T2, human TRβ ligand-binding domain; assay: TRb-bla agonist mammalian one-hybrid beta-lactamase assay (TOX21_TRB_BLA_Agonist_Followup_ratio, aeid 2236)

N[C@@H](Cc1ccc(Oc2cc(I)c(O)c(I)c2)c(I)c1)C(=O)O [3,3ʹ,5ʹ-Triiodo-L-thyronine]
AC50 [1]: 0.707 µM
AC50 [2]: 1 µM
AC50 [3]: 0.641 µM
